Test results taken from patent publication US8299031B2, “Human semen enhancer of viral infection peptides (SEVI) and their use” (Viro Pharmaceuticals GmbH & Co. KG, priority 2006, dated 2012).

Assay: Congo red staining with light, polarized light and fluorescence microscopy
Format: physicochemical
Procedure: A few drops of the resulting activated turbid oligopeptide solution were transferred to a polylysine-coated slide and the protein solution was dried under airflow in an extractor hood. The dried protein was stained with saturated Congo red solution (in 80% ethanol and 2 M NaCl) and washed with 80% ethanol. As reference proteins and peptides, solutions of soluble, non incubated PAP(248-286) and human albumine in similar concentrations were transferred to the same slides and stained equally. […] The same slides stained with Congo red were examined by light and fluorescence microscopy. […] Staining with Congo Red and birefringence are typical criteria for fibril formation (Nilsson; 2004). In addition, by conventional fluorescence microscopy remarkable differences in colour and intensity of the SEVI fibrils (lucent orange, FIG. 6A) could be observed, in contrast to the soluble, non-activated PAP(248-286) (black, FIG. 6B) or albumine (green, FIG. 6C).
FIG. 4. Activated SEVI peptides are stainable with Congo red which is indicative for fibril formation. Upper and lower slide: a solution of activated precipitated SEVI peptides (A), non-activated, soluble SEVI (B) and albumine (C) were transferred to poly-lysine-coated slides and stained by Congo red.
FIG. 5. Activated SEVI peptides show the typical birefringence effect (double refraction) of fibrils using polarized light in light microscopy. The same Congo red-stained slides shown in FIG. 4 were used for microscopy: The solution of activated precipitated SEVI peptides (A), non-activated, soluble SEVI (B) and albumine (C).
FIG. 6. Activated SEVI peptides show remarkably differences in color and intensity using fluorescence microscopy. The same Congo Red-stained slides shown in FIG. 4 were used for microscopy: The solution of activated precipitated SEVI peptides (A), non-activated, soluble SEVI (B) and albumine (C).

For “albumine: human albumine used as reference protein in Congo red staining”, which “birefringence in light microscopy using polarized light” value (Congo red stained slides) is on record?
The value was “did not show a birefringence effect”.

And the “colour in conventional fluorescence microscopy” value (Congo red stained slides)?
Its value is “green”.

And the “Congo Red staining” value (dried on polylysine-coated slide, saturated Congo red solution)?
The value was “blue coloration”.
